Here are results for 2 molecules from PMC4860824, “Targeting the γ-/β-secretase interaction reduces β-amyloid generation and ameliorates Alzheimer’s disease-related pathogenesis” (Cell Discovery, 2015).

The target of one test is CFP-PS1 (human), P49768. The test is described as follows: FRET or BRET; acceptor photobleaching FRET between CFP and YFP fusions in fixed, transfected HEK293 cells, in the presence of the other γ-secretase components; n=20 cells per group; also after 16 h with 3 μM chemicals (3AA, XYT472B, secretase inhibitors). Conditions: remark: other sources report otherwise. (In general: In BRET a luciferase serves as donor, and the signal depends on an acceptor being close.)

The next test addresses YFP-PS1 (human), P49768. The test is described as above. As to conditions: remark: other sources report otherwise.

B1: BACE1-YFP, P56817 46-501 (natural protein)
chain: ETDEEPEEPGRRGSFVEMVDNLRGKSGQGYYVEMTVGSPPQTLNILVDTGSSNFAVGAAPHPFLHRYYQRQLSSTYRDLRKGVYVPYTQGKWEGELGTDLVSIPHGPNVTVRANIAAITESDKFFINGSNWEGILGLAYAEIARPDDSLEPFFDSLVKQTHVPNLFSLQLCGAGFPLNQSEVLASVGGSMIIGGIDHSLYTGSLWYTPIRREWYYEVIIVRVEINGQDLKMDCKEYNYDKSIVDSGTTNLRLPKKVFEAAVKSIKAASSTEKFPDGFWLGEQLVCWQAGTTPWNIFPVISLYLMGEVTNQSFRITILPQQYLRPVEDVATSQDDCYKFAISQSSTGTVMGAVIMEGFYVVFDRARKRIGFAVSACHVHDEFRTAAVEGPFVTLDMEDCGYNIPQTDESTLMTIAYVMAAICALFMLPLCLMVCQWRCLRCLRQQHDDFADDISLLK
For B1, the FRET efficiency in the test with CFP-PS1 (human), P49768 was found to be 0.1.

B2: BACE1-CFP, P56817 46-501 (natural protein)
chain: ETDEEPEEPGRRGSFVEMVDNLRGKSGQGYYVEMTVGSPPQTLNILVDTGSSNFAVGAAPHPFLHRYYQRQLSSTYRDLRKGVYVPYTQGKWEGELGTDLVSIPHGPNVTVRANIAAITESDKFFINGSNWEGILGLAYAEIARPDDSLEPFFDSLVKQTHVPNLFSLQLCGAGFPLNQSEVLASVGGSMIIGGIDHSLYTGSLWYTPIRREWYYEVIIVRVEINGQDLKMDCKEYNYDKSIVDSGTTNLRLPKKVFEAAVKSIKAASSTEKFPDGFWLGEQLVCWQAGTTPWNIFPVISLYLMGEVTNQSFRITILPQQYLRPVEDVATSQDDCYKFAISQSSTGTVMGAVIMEGFYVVFDRARKRIGFAVSACHVHDEFRTAAVEGPFVTLDMEDCGYNIPQTDESTLMTIAYVMAAICALFMLPLCLMVCQWRCLRCLRQQHDDFADDISLLK
Regarding B2, the FRET efficiency with YFP-PS1 (human), P49768 was 0.1.
